Experiment: Stability of test stimuli over the testing period (score per study visit day, linear regression)
Assay type: physicochemical
Conditions: stimuli made once, stored at room temperature, used throughout four-month study
From the text: To calculate the stability of SMELL-S (panel A) and SMELL-R (panel B), the median and interquartile range of testing score per study visit day were plotted. The slope of the data was fitted by linear regression, and analyzed for significant difference from a slope of zero, which would correspond to perfect stability across the testing period. Stimuli for each test were freshly made only once at the beginning of the study, stored at room temperature in a ventilated lab, and used throughout the study. Study visit days took place 2-3 times a week. We tested 75 subjects who performed each one of the 4 tests twice.
The disclosure includes a proviso that any compound or combination of compounds can be excluded from the claims of this application or patent, including but not necessarily limited to those compounds disclosed herein as “excluded” wherein the exclusion is for any reason, including but not limited to lateralization score or intensity-matching, or a combination thereof. […] In embodiments, stability is determined by the combination of compounds remaining suitable for using in a method described herein. […] The slope of the data was fitted by linear regression (but other statistical methods that will be apparent to those skilled in the art could also be used) and analyzed for significant difference from a slope of zero, which would correspond to perfect stability across the testing period. […]

With butanol the stability of stimuli was “not stable”.
